Measurements as given in ChEMBL document CHEMBL1150874, “Antiviral phenylpropanoid glycosides from the medicinal plant Markhamia lutea” (J Nat Prod, 1998).

Experiment: Selectivity index, ratio of EC50 for VZV 3CV-1 by plaque neutralization over IC50 for human Hep2 cells
Type: functional, HEp-2

## Nc1nc2c(ncn2COC(CO)CO)c(=O)[nH]1 [GANCICLOVIR]
  Ratio IC50/EC50: 74
